Amino acid sequences for entries named in this document (tags omitted).
DNA repair and recombination protein RAD54-like (Homo sapiens), Q92698, UniProt Q92698, whole entry, looked up: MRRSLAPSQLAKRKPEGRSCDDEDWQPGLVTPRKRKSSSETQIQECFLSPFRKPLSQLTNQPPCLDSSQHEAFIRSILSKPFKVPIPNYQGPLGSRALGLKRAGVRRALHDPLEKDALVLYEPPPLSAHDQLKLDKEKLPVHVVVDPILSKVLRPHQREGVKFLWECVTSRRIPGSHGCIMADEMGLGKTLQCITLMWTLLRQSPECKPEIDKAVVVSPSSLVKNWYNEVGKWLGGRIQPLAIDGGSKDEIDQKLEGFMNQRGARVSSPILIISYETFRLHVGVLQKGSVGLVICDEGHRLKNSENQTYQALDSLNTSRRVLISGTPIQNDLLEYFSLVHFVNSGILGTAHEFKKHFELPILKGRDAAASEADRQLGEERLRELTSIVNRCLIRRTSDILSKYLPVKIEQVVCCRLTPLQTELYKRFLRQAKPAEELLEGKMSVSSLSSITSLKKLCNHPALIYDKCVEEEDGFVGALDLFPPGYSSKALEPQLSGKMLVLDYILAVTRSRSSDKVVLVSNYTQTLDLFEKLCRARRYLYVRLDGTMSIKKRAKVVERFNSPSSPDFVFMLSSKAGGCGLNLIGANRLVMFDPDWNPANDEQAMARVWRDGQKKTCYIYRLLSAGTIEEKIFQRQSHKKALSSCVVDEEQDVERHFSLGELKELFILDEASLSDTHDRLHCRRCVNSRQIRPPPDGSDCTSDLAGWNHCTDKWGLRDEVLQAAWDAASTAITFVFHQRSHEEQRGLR
Protein AF-9 (Homo sapiens), P42568, UniProt P42568, whole entry, looked up: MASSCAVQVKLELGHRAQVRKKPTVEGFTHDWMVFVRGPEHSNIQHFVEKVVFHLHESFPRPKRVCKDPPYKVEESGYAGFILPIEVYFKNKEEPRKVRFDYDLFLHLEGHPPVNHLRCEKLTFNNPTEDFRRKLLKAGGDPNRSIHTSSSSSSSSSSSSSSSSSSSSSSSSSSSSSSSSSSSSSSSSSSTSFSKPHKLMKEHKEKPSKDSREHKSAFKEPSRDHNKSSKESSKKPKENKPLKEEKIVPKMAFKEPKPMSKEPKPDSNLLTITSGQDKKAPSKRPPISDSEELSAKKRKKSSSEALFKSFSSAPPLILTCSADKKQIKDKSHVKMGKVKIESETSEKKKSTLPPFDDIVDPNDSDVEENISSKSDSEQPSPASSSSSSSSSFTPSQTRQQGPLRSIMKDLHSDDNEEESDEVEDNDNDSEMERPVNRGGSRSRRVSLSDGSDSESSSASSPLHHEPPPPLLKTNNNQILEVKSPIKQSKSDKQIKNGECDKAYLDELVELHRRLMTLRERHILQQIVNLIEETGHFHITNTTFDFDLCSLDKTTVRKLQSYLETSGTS

# Most compounds without a hit are left out; they make up all but 1.8% or so of the library.
# E-selectin induc = E-selectin induction in HUVECs, primary screen, imaging, HUVEC, immunofluorescence imaging, single point. activation, % at 7.58 µM. actives 0.37% (n = 260,000). P16581. normalized: neutral wells 0, TNF-alpha wells 100;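 active means mean E-selectin-positive cell signal at least 10% of the positive control, reached in at least 60% of replicates, without over 20% cell loss; inconclusive means no rule given, readout overlaps actives, possibly toxicity-flagged; inactive means the rest, including those meeting only one limit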
#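 Read-out: % PE-positive cells | Test system: HUVEC | Doses: One compound dose added by pin transfer | Buffer or medium: EGM-2 over gelatin coat | Signal: Immunofluorescence imaging | Benchmarks: TNF-alpha, DMSO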
# UUG fidelity = yeast start codon fidelity modulation | S. cerevisiae UUG-firefly luciferase reporter, luminescence/redox ratio | activity score, % at 18.7 µM | 0.13% of 350,000 active | AID 602363;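 active means replicate mean at a twofold rise or more, about +100% in these data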;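 further: firefly luciferase made from a UUG start codon reports start codon fidelity; reporter light over untreated wells divided by growth signal over untreated wells; some hits fall short of that in this replicate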
# SIRT5 inh = SIRT5 desuccinylase inhibitors, primary screen, biochemical, fluorescence imaging, single point, set 5; Purified SirT5, succinyl-peptide AMC, trypsin-coupled fluorescence; NAD-dependent protein deacylase sirtuin-5, mitochondrial (Homo sapiens), Q9NXA8; actives 1.1% (n = 330,000); inhibition, % at 15 µM; in the data active means inhibition above about 15%; inconclusive means no clear call, values can overlap the other calls
# RAD54 inh = inhibitors of human RAD54 branch migration, primary screen, biochemical, fluorescence, single point; actives 0.14% (n = 360,000); RAD54 Holliday junction branch migration, FAM/BHQ fluorescence; inhibition, % at 10.4 µM; AID 602329, 2012; DNA repair and recombination protein RAD54-like (Homo sapiens), Q92698;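 active means mean normalized replicate activity at least 40 and at least half of replicates scoring 40 or more; inconclusive means only one of the two criteria met; inactive means mean below 40 and under half of replicates reaching 40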;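 further: 0% = median of neutral control wells and 100% = median of positive control wells; inhibitors cause a drop in the FAM fluorescence signal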
# AF4-AF9 inh = inhibitors of AF4 peptide binding to AF9, primary screen, biochemical, AlphaScreen, biotin-AF4 peptide, FLAG-AF9, single point. actives 0.47% (n = 350,000). AID 651704, 2012. inhibition, % at 10 µM. Protein AF-9 (Homo sapiens), P42568;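 active means every replicate reaching a set inhibition limit, whatever the replicate mean, cut at about 25% in these data; inconclusive means mean inhibition reaches that limit but some replicates miss it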;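 further: 0% = plate neutral control median and 100% = total signal loss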
# RAD52 anneal inh = RAD52 DNA annealing inhibitors, primary screen, biochemical, FRET, single point, set 2. actives 0.46% (n = 360,000). recombinant RAD52 DNA annealing, FRET fluorescence. inhibition, % at 18.7 µM;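 active means every replicate showing at least 50% inhibition; inconclusive means mean inhibition at least 50% but not in every replicate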
# AlphaScreen intf = AlphaScreen signal interference counter-screen, dose response, artefact control, biochemical, cherry-picked samples, luminescence | shares compounds with AF4-AF9 inh | AC50, µM (top dose mostly 12 µM), for inactives: top-dose activity change, negative = inhibition | actives 45% (n = 530) | AID 720494, 2013; cut-off not given, nearly all actives have AC50 up to about 14 µM
# DNA binder FP = DNA-binding compounds via dye displacement, dose response, artefact control for RAD52 inhibitor project, biochemical, fluorescence polarization, cherry-pick. shares compounds with RAD52 anneal inh. Salmon sperm DNA/acridine orange FP displacement. AC50, µM. actives 8% (n = 1,000). AID 652128, 2013;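 active means fitted half-maximal concentration for signal loss at or below twice the highest dose tested, in every separate run, actives reach about 64 µM in these data; inconclusive means runs disagree, or flat partial signal loss, or poor fit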
# * = called active by the depositor; i = inactive; ? = inconclusive; · = no result given.
SMILES,E-selectin induc,UUG fidelity,SIRT5 inh,RAD54 inh,AF4-AF9 inh,RAD52 anneal inh,DNA binder FP,others
CCOC(=O)c1c(C)n(-c2ccc(C)cc2)c2ccc(OCC(O)CNCCCO)cc12 (stereo unspecified),·,·,-5.1,·,27.1*,82.5*,i,AlphaScreen intf=-18.5%
Cc1c(C)n(Cc2ccccc2)c2ccc(C(=O)OCCN(C)C)cc12,·,-3.6,3.4,30.9,27.7*,65.9*,i,AlphaScreen intf=-28.5%
CCN(CC)c1ccc(C(=C2C=CC(=[N+](CC)CC)C=C2)c2ccc(N(CC)CC)cc2)cc1,·,-62.6,0.8,16.6,98.1*,51.6*,i,AlphaScreen intf=0.256µM*
CCN(CC)c1ccc(C(=O)NNC(=O)CCl)cc1,-0.3,-18.0,-6.2,10.8,3.9,-20.1,·,
CN(C)c1ccc(C(CNS(=O)(=O)c2ccc3ccccc3c2)c2c[nH]c3ccccc23)cc1 (stereo unspecified),0.1,·,·,·,·,·,·,
CN(C)c1ccc(C(CN)c2c[nH]c3ccccc23)cc1 (stereo unspecified),10.5,1.3,-6.3,-7.6,30.2*,84.1*,i,AlphaScreen intf=-33.1%
C#CCOCCOCCOCCNc1nc(N2CCN(C(=O)[C@H](CCCN=C(N)N)n3cc(C(N)[C@@H](C)CC)nn3)CC2)nc(N2CCN(C(=O)[C@H](CCCCN)n3cc([C@@H](N)CC(N)=O)nn3)CC2)n1 (stereo partly specified),·,47.3,-3.2,-38.1,36.8*,65.9*,i,AlphaScreen intf=-13.0%
COCC(=O)N1CC2(CN(Cc3ccc(OC)cc3)C2)c2c([nH]c3cc(OC)ccc23)[C@@H]1CO,-0.2,·,-1.2,·,-1.0,5.6,·,
CN(C)CCNC(=O)c1cccc(-c2cc(NC=O)c3ncc(-c4cccc(C(F)(F)F)c4)n3c2)c1,-0.1,-2.6,·,35.4,35.8*,73.7*,i,AlphaScreen intf=-32.6%
COc1cccc(OC)c1OCCCCCCN1CCN(C)CC1,·,-8.9,-6.5,0.7,-24.0,6.4,·,
CN1CCN(CCCCOc2ccccc2C=O)CC1,-4.7,6.7,-0.8,19.0,33.1*,87.4*,i,AlphaScreen intf=-36.0%
Cc1noc(C)c1S(=O)(=O)N(C)C[C@H]1Oc2ccc(NC(=O)Nc3ccccc3)cc2CC(=O)N([C@H](C)CO)C[C@@H]1C,0.1,·,·,·,·,·,·,
CCN(CC)CCNC(=O)C(=O)Nc1cc2c3c(c1)CC(=O)N3CCC2,0.3,2.3,-3.4,-4.8,-5.5,55.0*,i,
Cc1ccccc1Cn1c2ccccc2c2cnn(CC(=O)NCCCN3CCOCC3)c(=O)c21,·,4.4,-1.3,5.8,0.6,-5.6,·,
Cc1ccccc1Cn1c2ccccc2c2cnn(CC(=O)NCCCN3CCN(C)CC3)c(=O)c21,·,3.5,-6.9,20.9,14.7,70.6*,i,
CN(C)C(=O)c1cccc(-c2cnc3c(NC=O)cc(-c4cccc(F)c4)cn23)c1,-0.5,-7.3,-1.0,-2.6,5.9,-14.9,·,
CN(C)CCNC(=O)c1cccc(-c2cnc3c(NC=O)cc(-c4cc(F)c(F)c(F)c4)cn23)c1,-0.5,-3.1,-1.7,33.8,7.3,66.6*,i,
COc1ccc(NC(=O)N2CC3(C2)CN(C(=O)CN2CCOCC2)[C@H](CO)c2[nH]c4cc(OC)ccc4c23)cc1,0.0,·,0.1,·,0.6,-1.3,·,
CC(=O)c1ccc(Nc2nc(C(N)Cc3ccc(N)cc3)cs2)cc1 (stereo unspecified),-0.1,-10.6,-1.8,7.9,?,87.0*,i,
NC(c1ccccc1)c1csc(Nc2ccc(C(=O)c3ccccc3)cc2)n1 (stereo unspecified),0.0,-16.5,1.9,-12.2,7.3,61.6*,i,
CC(=O)c1ccc(Nc2nc(C(N)Cc3ccc(Cl)cc3)cs2)cc1 (stereo unspecified),0.3,-3.1,1.9,7.3,3.6,-155.0,·,
CCC(=O)N1CCC2(CC1)CN(C(=O)Nc1ccccc1F)[C@H](CO)c1c2c2ccc(OC)cc2n1C,-0.2,·,·,·,-3.1,·,·,
COCC(=O)N1CC2(C1)[C@H](c1ccc(-c3ccc(F)cc3)cc1)[C@@H](CO)N2C(C)=O,-0.2,·,-5.2,·,0.6,-17.7,·,
COc1cc(-c2cnc3c(NC=O)cc(-c4ccc(N5CCN(C)CC5)cc4)cn23)cc(OC)c1OC,0.9,-36.8,-1.4,21.9,17.6,70.0*,i,
COc1cc(-c2cnc3c(NC(C)=O)cc(-c4ccc(N5CCN(C)CC5)cc4)cn23)cc(OC)c1OC,-0.2,-9.4,·,30.7,15.8,25.5,·,
Cc1ccc(-n2c(C)c3c(C)nnc(C)c3c2C)cc1N,2.4,-7.5,-1.2,5.1,14.0,42.8,·,
Cc1cc(-n2c(C)c3c(C)nnc(C)c3c2C)ccc1N,0.0,·,-0.5,·,7.0,65.9*,i,
CCCC#Cc1cnc2c(c1)C(=O)N([C@@H](C)CO)C[C@H](C)[C@@H](CN(C)C(=O)C1CCOCC1)O2,-0.2,-8.1,-3.2,3.1,-4.5,-2.3,·,
NCCNCCNCCN,-2.3,-14.2,-3.0,21.2,16.9,94.3*,i,
C[C@H](CO)N1C[C@H](C)[C@H](CN(C)Cc2ccc(C(F)(F)F)cc2)Oc2ccc(NS(=O)(=O)c3cccs3)cc2CC1=O,0.4,-0.6,-1.3,-6.1,-1.5,6.1,·,

# The closing four compounds of the section before are carried over, then new ones follow:
SMILES,E-selectin induc,UUG fidelity,SIRT5 inh,RAD54 inh,AF4-AF9 inh,RAD52 anneal inh,DNA binder FP,others
Cc1cc(-n2c(C)c3c(C)nnc(C)c3c2C)ccc1N,0.0,·,-0.5,·,7.0,65.9*,i,
CCCC#Cc1cnc2c(c1)C(=O)N([C@@H](C)CO)C[C@H](C)[C@@H](CN(C)C(=O)C1CCOCC1)O2,-0.2,-8.1,-3.2,3.1,-4.5,-2.3,·,
NCCNCCNCCN,-2.3,-14.2,-3.0,21.2,16.9,94.3*,i,
C[C@H](CO)N1C[C@H](C)[C@H](CN(C)Cc2ccc(C(F)(F)F)cc2)Oc2ccc(NS(=O)(=O)c3cccs3)cc2CC1=O,0.4,-0.6,-1.3,-6.1,-1.5,6.1,·,
Cn1c(C(=O)NCCCN2CCCCCC2)cc2c(=O)n(C)c3ccccc3c21,-0.1,35.6,·,43.6,8.9,52.5*,i,
CCOC(=O)c1c(NC(C)=O)sc2c(OCCN(CC)CC)c(Br)ccc12,·,·,-6.4,·,13.1,61.0*,i,
CCOC(=O)c1c(NC(C)=O)sc2c(OC)cccc12,·,-31.0,·,3.7,·,·,·,
C[C@@H]1CN([C@H](C)CO)C(=O)c2cc(N(C)C)ccc2O[C@@H](C)CCCCO[C@H]1CN(C)C(=O)Nc1ccc2c(c1)OCO2,-0.4,·,·,·,·,·,·,
COc1cc(CNC(C)(C)CO)cc(Br)c1OCc1ccc(Cl)cc1Cl,·,·,·,·,13.2,55.5*,i,
CO[C@@H]1CN(C)C(=O)c2cc(NC(=O)C3CCC3)ccc2OC[C@@H](C)N(C(=O)CN(C)C)C[C@@H]1C,-0.2,-0.4,1.3,0.9,-0.7,20.7,·,
COc1cccc(C2=CC(=O)C(C(C)(C)C)N2C(C)(C)C)c1 (stereo unspecified),-0.1,13.4,·,-15.2,2.4,79.5*,i,

# Assay outcomes (PubChem)
